Assay [1] concerns the target Metabotropic glutamate receptor 5 (Homo sapiens) (UniProt P41594). The experiment in a line: Positive allosteric modulator activity at mGluR5 receptor expressed in HEK293A cells assessed as maximum glutamate-induced response preincubated for 140 secs before glutamate challenge by calcium fluorescence assay. The format is functional, cell-based. The following applies: HEK293-A.

Sequences of proteins named here, by UniProt entry; tags and fusion partners are left off.
UniProt P41594, whole entry, looked up: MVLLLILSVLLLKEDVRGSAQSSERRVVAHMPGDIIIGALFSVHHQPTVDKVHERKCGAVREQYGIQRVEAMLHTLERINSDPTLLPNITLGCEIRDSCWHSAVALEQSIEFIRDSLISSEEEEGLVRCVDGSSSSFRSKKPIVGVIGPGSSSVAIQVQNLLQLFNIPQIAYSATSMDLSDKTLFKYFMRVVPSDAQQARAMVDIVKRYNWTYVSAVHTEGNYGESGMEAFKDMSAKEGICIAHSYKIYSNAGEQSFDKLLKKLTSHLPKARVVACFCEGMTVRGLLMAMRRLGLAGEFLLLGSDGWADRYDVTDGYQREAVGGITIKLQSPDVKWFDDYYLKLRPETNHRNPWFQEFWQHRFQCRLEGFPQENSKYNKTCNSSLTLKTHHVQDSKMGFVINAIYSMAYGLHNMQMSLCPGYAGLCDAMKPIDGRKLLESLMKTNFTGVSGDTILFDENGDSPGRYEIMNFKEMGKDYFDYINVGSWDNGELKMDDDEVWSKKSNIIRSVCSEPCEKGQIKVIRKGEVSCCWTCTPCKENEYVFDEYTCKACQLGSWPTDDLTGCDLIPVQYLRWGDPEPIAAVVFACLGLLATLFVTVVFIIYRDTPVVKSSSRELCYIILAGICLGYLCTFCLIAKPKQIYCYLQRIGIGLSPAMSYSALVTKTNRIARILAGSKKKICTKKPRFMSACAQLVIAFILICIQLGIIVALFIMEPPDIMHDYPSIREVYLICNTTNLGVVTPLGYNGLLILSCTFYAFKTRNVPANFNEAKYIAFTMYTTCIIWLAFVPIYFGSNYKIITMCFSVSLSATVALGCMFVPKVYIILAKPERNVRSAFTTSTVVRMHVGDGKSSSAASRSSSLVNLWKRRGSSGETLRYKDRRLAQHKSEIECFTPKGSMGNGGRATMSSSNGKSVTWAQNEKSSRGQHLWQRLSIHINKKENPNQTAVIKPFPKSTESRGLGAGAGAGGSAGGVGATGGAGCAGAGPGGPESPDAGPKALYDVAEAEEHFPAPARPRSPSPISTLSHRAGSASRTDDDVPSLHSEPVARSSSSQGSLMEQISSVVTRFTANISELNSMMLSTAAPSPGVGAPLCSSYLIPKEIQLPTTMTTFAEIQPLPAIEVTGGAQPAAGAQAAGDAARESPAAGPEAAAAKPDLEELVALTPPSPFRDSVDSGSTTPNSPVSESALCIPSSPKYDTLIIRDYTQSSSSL
UniProt P31424, whole entry, looked up: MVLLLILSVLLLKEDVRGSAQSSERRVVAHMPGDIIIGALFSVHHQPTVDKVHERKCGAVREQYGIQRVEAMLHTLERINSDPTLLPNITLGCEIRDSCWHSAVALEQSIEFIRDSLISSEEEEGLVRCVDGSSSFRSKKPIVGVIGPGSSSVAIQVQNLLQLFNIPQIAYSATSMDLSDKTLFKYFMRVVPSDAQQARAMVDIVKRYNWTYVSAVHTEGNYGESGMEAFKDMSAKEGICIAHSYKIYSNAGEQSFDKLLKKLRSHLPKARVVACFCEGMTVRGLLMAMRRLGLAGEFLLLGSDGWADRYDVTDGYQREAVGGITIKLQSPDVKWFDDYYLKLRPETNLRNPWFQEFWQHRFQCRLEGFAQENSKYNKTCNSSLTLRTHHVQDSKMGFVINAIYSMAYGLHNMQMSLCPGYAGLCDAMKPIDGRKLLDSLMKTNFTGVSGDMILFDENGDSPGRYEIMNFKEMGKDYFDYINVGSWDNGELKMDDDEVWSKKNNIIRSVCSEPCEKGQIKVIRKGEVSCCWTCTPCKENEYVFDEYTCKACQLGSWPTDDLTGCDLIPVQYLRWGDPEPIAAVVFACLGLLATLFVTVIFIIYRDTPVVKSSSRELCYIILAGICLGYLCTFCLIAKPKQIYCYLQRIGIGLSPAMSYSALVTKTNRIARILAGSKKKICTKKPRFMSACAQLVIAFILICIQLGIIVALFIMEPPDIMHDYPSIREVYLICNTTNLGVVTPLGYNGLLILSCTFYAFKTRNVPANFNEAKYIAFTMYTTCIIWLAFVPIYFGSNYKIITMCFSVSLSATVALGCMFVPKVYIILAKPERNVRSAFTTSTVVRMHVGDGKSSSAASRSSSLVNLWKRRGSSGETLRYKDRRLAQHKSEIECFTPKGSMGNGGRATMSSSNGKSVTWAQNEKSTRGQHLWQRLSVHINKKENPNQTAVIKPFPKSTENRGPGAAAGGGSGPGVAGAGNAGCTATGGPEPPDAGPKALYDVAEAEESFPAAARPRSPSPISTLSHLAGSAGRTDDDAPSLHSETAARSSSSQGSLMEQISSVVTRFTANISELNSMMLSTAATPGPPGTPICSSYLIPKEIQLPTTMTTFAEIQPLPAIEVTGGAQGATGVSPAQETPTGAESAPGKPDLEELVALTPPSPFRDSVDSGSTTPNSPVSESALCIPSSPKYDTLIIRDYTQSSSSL

Assay [2] deals with Metabotropic glutamate receptor 5 (Rattus norvegicus, UniProt P31424). The experiment in a line: Positive allosteric modulator activity at mGluR5 receptor expressed in HEK293A cells assessed as effect on glutamate-induced calcium flux preincubated for 140 secs before glutamate challenge by calcium fluorescence assay. The format is functional, cell-based, HEK293-A. Background: A change in cytosolic calcium serves as a functional read-out for many receptors and channels.

The pEC50 is the EC50 on a negative log10 scale, so that one unit is a factor of ten.

pEC50: −log10 of the molar value.

Take `O=C(C1CCCCC1)N1CCCC1c1nc(-c2cccc(F)c2)no1` (configuration not stated): the Activity in assay [1] was 8%. Besides, the pEC50 in assay [2] was 5.00.
